In PubChem BioAssay AID483 (Columbia University Molecular Screening Center, 2006):
The entries are a selection whose mix differs from that of the whole data set. Calls of active or inactive are those of the source.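 Rule for the calls: active = visual image review flags a hit and inhibition of aggregation exceeds 20%; inconclusive = visual hit but inhibition at or below 20%; inactive = no hit on visual image review.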

Assay: inhibitors of mutant huntingtin aggregation, primary screen, imaging, exon1htt(103Q)mCFP cells, high-content imaging (AID 483);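 note: compound exposure lasted 3 days before fixation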
Details: exon1htt(103Q)mCFP cell line, aggregate imaging; at 2 µM; stronger effect = higher value
In the case of O=C(COc1ccccc1)OC1CN2CCC1CC2 (stereo not given), the inhibition of aggregation was inactive: -2.6%. For COP1(=S)c2c(C)nn(CCC#N)c2N=C(c2ccc(F)cc2)N1C (stereo not given), the inhibition of aggregation was inactive: -11.4%. In the case of Cc1nn(-c2ccccc2)c2c1P(=O)(N1CCOCC1)N(C)C(c1ccccc1)=N2 (stereo not given), the inhibition of aggregation was inactive: -16%. In the case of CCOP1(=S)c2c(C)nn(CCC#N)c2N=C(c2ccccc2F)N1C (stereo not given), the inhibition of aggregation was inactive: 10.7%. For O=P(Nc1nccs1)(c1ccccc1)c1ccccc1, the inhibition of aggregation was inactive: 9.8%.
